ALOX12 inh: inhibitors of human 12S-lipoxygenase ALOX12 | P18054 | purified 12hLO, xylenol orange hydroperoxide absorbance | Potency, µM (series often up to 108 µM), hits mostly inhibitors | 580,000 tested, 1.1% active
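Hydroperoxide product was detected by ferrous iron/xylenol orange as the 573 to 405 nm absorbance ratio. Arachidonic acid at 40 uM (final) was turned over for 30 min at room temperature by 150 nM human 12hLO, pH 7.0 Hepes buffer, after 15 min compound preincubation.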
PINK1 expr mod: modulators of PINK1 expression; PINK1 immunofluorescence, high-content cytometry, 24 h; Potency, µM (highest dose often 76.6 µM), most hits filed as activators; 410,000 tested, 0.2% active; AID 624263; active means well fitted activation curve with a large enough effect; inconclusive means small, poorly fitted or top-dose-only effect; cell line not stated here; further: nearly all actives have a fitted effect of over 65% in size
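Stable cell line, 250 cells/well, 12 h attachment; compounds pinned at 5 concentrations, 24 h; CCCP control. Fixed with nuclear dye, primary antibodies 12 h at 10 degrees C, secondary plus cell stain; laser-scanning cytometer read.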
miR-21 reporter: miR-21 reporter, rising signal | AID 2288 | HeLa miR-21 FLuc reporter, luciferase, 48 h | 340,000 tested, under 10 active | Potency, µM (doses to about 38.3 µM); active = well fitted rising curve with a large enough effect; inconclusive = small, poorly fitted or top-dose-only effect; inactive = no such curve, though single readings can be large or run the other way;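 note: miR-21 action dims this reporter so a rising signal means less miR-21 action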
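HeLa miR-21-FLuc reporter line, endogenous miR-21; 2000 cells/well in DMEM/10% FBS; compound titration up to ~40uM final, 48 h, 37 degree Celsius; luciferase detection reagent, 15 min lysis, CCD luminescence.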
PTHR1 ag: PTHR1 (human) receptor agonism; Q03431; HEK293 GP2 PTHR1 cells, GloSensor cAMP luminescence, 1 h; Potency, µM (doses to about 115 µM), usual class: activators; 410,000 tested, 0.075% active; AID 743266; further: nearly all actives have a fitted effect of over 55% in size
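HEK-293-derived GP2 cells expressing PTHR1 and a GloSensor cAMP reporter, 3,000/well, plated overnight, given luciferin plus IBMX (each 0.5 mM as added) for 1 h at 37 °C, then compound for 1 h at 37 °C. Luminescence was read after 15 min at room temperature.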
Giardia killer: kills Giardia lamblia; Giardia lamblia trophozoite viability; activity change, % at 7.66 µM, hits read low; 340,000 tested, 0.15% active; AID 540267; in the data active means activity change below about -80%; inconclusive means between about -30% and that limit;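 further: parasites exposed to compound for two days anaerobically before the ATP read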
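Viability, read as ATP luminescence: trophozoites at 100 cells/well, compound added, 48 hrs anaerobic at 37 deg C, then 15-30 min room-temperature development before reading.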
ERG-DNA inh: blocks human ERG Ets domain binding to DNA | Potency, µM (highest dose often 76.9 µM), most hits filed as inhibitors | 370,000 tested, 0.028% active | P11308 | fluorescence polarization, His-ERG Ets domain / labelled DNA; active means well fitted inhibition curve with a large enough effect in the polarisation, with a control signal flat; inconclusive means small, poorly fitted or top-dose-only effect, or effect the other way, or a change in a side signal; inactive means no such curve, though single readings can be large or run the other way; the % refers to the polarisation;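 further: polarization taken with two DNA probes labelled with fluorescein and Texas red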
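His-tagged ERG Ets domain (1 uM in the protein solution; 300mM KCl, 50mM Tris-HCl, 1mM EDTA, 1mM DTT, pH 7.5) received compound, then a probe mix of 5 nM fluorescein-DNA and 100nM Texas-615-DNA. Fluorescence polarization was read for both dyes.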
A number is an active result; - = inactive; ? = inconclusive; . = no result; ! = not confirmed by another sample. An excerpt weighted towards active compounds, which were near 1.3% of everything screened. Unless noted, the call rests on the fitted dose curve; in most records, active means well fitted curve in the direction sought with a large enough effect; inconclusive means small, poorly fitted or top-dose-only effect, or another doubt; inactive means no such curve, though single readings can be large; an effect the other way counts as inactive or inconclusive.

SMILES | ALOX12 inh | PINK1 expr mod | miR-21 reporter | PTHR1 ag | Giardia killer | ERG-DNA inh
C(=C\c1sc(Nc2ccccc2)n[n+]1-c1ccccc1)/c1ccccc1 | 50.1µM | - | . | - | - | -
COc1ccc(-c2sc(Nc3ccccc3)n[n+]2-c2ccccc2)cc1Br | ? | - | . | - | - | -
O=C(O)c1cc(-c2ccco2)nc2cc3ccccc3cc12 | 20µM | - | - | - | - | -
O=C(O)c1ccc(NC(=O)c2cc(-c3ccco3)nc3ccccc23)cc1 | 7.94µM | . | . | . | . | .
O=C(NNC(=O)c1cc(-c2ccco2)nc2ccccc12)c1ccccc1 | ? | - | - | - | - | -
O=C(O)c1ccccc1/C=N/NC(=O)c1cc(-c2ccco2)nc2ccccc12 | ? | - | - | - | - | -
O=C(NC1CC1)c1ccc(NC(=O)c2cc(-c3ccco3)nc3ccccc23)cc1 | 10µM | . | . | . | . | .
CC(=O)c1cccc(NC(=O)c2cc(-c3ccco3)nc3ccccc23)c1 | 28.2µM | - | - | - | - | -
N=c1oc2c3c4c(cc2cc1C(=O)Nc1ccccc1)CCCN4CCC3 | . | 11.2µM | - | - | - | -
CCCCCCN1CCN(C2CN(Cc3cn(CCCC(=O)OC)nn3)S(=O)(=O)C2)CC1 (stereo not given) | - | - | . | - | . | .
O=C(NC1CCCCC1)N[C@H]1CO[C@H]2[C@@H]1OC[C@@H]2n1nnnc1-c1ccc2c(c1)OCO2 | 44.7µM | . | . | . | . | .
O=C(Nc1nc(COc2ccccc2)cs1)C12CC3CC(CC(C3)C1)C2 | 28.2µM | - | - | - | - | -
COc1ccc2nc(NC(=S)N(C)C)sc2c1 | 7.94µM | - | - | - | - | -
CCCC(=O)Nc1nc2ccc(OC)cc2s1 | - | - | - | - | - | -
O=c1[nH][nH]c(-c2ccccc2O)c1C(C[N+](=O)[O-])c1ccc(Br)cc1 (stereo not given) | ? | - | ? | - | - | ?
Cc1ccc(C(C[N+](=O)[O-])c2c(-c3ccccc3O)[nH][nH]c2=O)cc1 (stereo not given) | 39.8µM | - | - | - | - | -
CN(CCc1ccccn1)[C@@H]1[C@H](O)[C@H](CO)O[C@@H]1CNC(=O)Nc1ccc(F)cc1F | - | . | . | . | . | .
O=S(=O)(NC[C@H]1O[C@@H](CO)[C@@H](O)[C@H]1N1CCOCC1)c1ccccc1 | - | . | . | . | . | .
O=S(=O)(NC[C@H]1O[C@@H](CO)[C@@H](O)[C@H]1N1CCN(c2ccccc2)CC1)c1ccc(F)cc1 | 22.4µM | . | . | . | . | .
O=C(NC[C@H]1O[C@@H](CO)[C@@H](O)[C@H]1N1CCN(c2ccccn2)CC1)Nc1ccc(F)cc1F | 10µM | . | . | . | . | .
CCn1c(=O)c2c(cc(C)n2C)n(CC(=O)Nc2ccccc2C)c1=O | - | . | . | . | . | .
COc1ccccc1-n1c(C)nnc1SCC(=O)Nc1cc(C)cc(C)c1 | - | - | - | - | - | -
CN(C)c1ccc(-c2cncnc2-n2ccnc2)cc1 | 39.8µM | - | . | . | . | .
FC(F)(F)c1ccccc1-c1cncnc1-n1ccnc1 | - | - | . | . | . | .
O=C(O)c1cc2ccccc2c(N=Nc2cccnc2)c1O | . | - | - | - | -82.4 | -
SMILES | ALOX12 inh | PINK1 expr mod | miR-21 reporter | PTHR1 ag | Giardia killer | ERG-DNA inh
COc1ccc(C2C(C#N)=C(N)Oc3cc(O)ccc32)cc1 (stereo not given) | ? | - | . | - | ? | -
N#CC1=C(N)SC(N)=C(C#N)C1c1cccc(O)c1 | 31.6µM | . | - | - | - | .
N#CC1=C(N)Oc2cc(O)ccc2C1c1ccccc1 (stereo not given) | 4.47µM! | - | - | - | - | -
COc1ccc(C(=O)C2CCCN(Cc3cccn3-c3ccccn3)C2)c(OC)c1 (stereo not given) | - | 39.8µM | ? | - | - | -
COc1ccc(CNC(=O)CNC(=O)CNS(=O)(=O)c2ccc(C)c(C)c2)cc1 | - | - | - | - | - | -
Cc1ccccc1Nc1sc(C(=O)c2ccccc2)c(N)c1C(=O)NCc1ccc(Cl)cc1 | - | 15.8µM | ? | - | . | -
Nc1c(C(=O)c2ccccc2)sc(Nc2ccc(Cl)c(Cl)c2)c1C(=O)Nc1ccccc1 | ? | 15.8µM | ? | - | . | -
COc1ccc(C(=O)c2sc(Nc3ccccc3)c(C(N)=O)c2N)cc1 | 15.8µM | . | . | . | . | .
Cc1ccc(Nc2sc(C(=O)c3ccccc3)c(N)c2C(=O)Nc2ccc(Cl)cc2)cc1 | ? | 39.8µM | ? | - | . | -
CN1CC(c2ccccc2)CC2(CCN(C(=O)CCS(C)(=O)=O)CC2)C1 (stereo not given) | - | . | . | . | . | .
CC(C)(C)OC(=O)N1CCN(C(=O)c2[nH]cnc2C(=O)NCC(=O)OCc2ccccc2)CC1 | - | - | - | - | - | -
NNc1ccc(Cc2ccc(NN)cc2)cc1 | 20µM | . | . | . | . | .
c1ccc(-c2ccc(-c3nc(-c4ccccn4)no3)cc2)cc1 | - | - | ? | - | ? | -
Cc1ccc(-c2nc(-c3ccccn3)no2)cc1 | - | - | ? | - | -90.3 | -
NNC(=S)Nc1ccc(Cl)cc1 | ? | - | - | - | - | -
NNC(=S)Nc1ccc(Br)cc1 | 7.08µM | . | . | . | . | .
C=CCn1c(SCC(=O)NC2CCCC2)nc2scc(-c3ccco3)c2c1=O | 44.7µM | - | - | - | - | -
C=CCn1c(SCC(=O)NCCCC)nc2scc(-c3ccco3)c2c1=O | ? | - | - | - | - | -
CC(C(=O)NNS(=O)(=O)c1cccc(C(F)(F)F)c1)n1nnc(N2CCOCC2)n1 (stereo not given) | 3.55µM | - | - | - | - | -
N#CCOc1ccccc1CNC[C@H]1O[C@@H](n2cnc3c(=O)[nH]c(N)nc32)[C@H](O)[C@@H]1O | - | - | . | - | . | .
CC(=O)NC1(C)CCCN(Cc2cccc(-c3ccccc3)c2)C1 (stereo not given) | - | . | . | . | . | .
CC(=O)NC1(C)CCN(Cc2cccc(-c3ccc4c(ccn4C)c3)c2)C1 (stereo not given) | 31.6µM | . | . | . | . | .
N#CCC(=O)Nc1ccc(C(=O)OC(C(=O)Nc2cc(C(F)(F)F)ccc2Cl)c2ccccc2)cc1 (stereo not given) | - | - | . | - | - | -
CSc1ccccc1NC(=O)/C(=C/c1ccco1)c1ccccc1 | 50.1µM | . | . | . | . | .
Cc1ccc(NC(=O)/C(=C/c2ccco2)c2ccccc2)c(C)c1 | - | - | - | - | - | -
C=CCc1cccc(C=Nc2c[nH]c(=O)[nH]c2=O)c1O | - | - | - | - | - | -
C=CCc1cccc(C=Nc2cc(Br)ccc2O)c1O | 35.5µM | - | - | - | - | -
S=C(N/N=C1/CC2CC=CC12)NC1CCCCC1 (stereo not given) | 35.5µM | . | . | . | . | .
COc1cc(NC(=O)CCS(=O)(=O)c2ccc3c(c2)n(C)c(=O)c(=O)n3C)cc(OC)c1 | - | - | - | 22.4µM! | - | -
CCc1ccc(NC(=O)CCS(=O)(=O)c2ccc3c(c2)n(C)c(=O)c(=O)n3C)cc1 | - | - | - | - | . | -
